{"source": "patent EP2913057B1", "about": "“Cancer peptide therapeutics” (Indiana University Research and Technology Corporation, priority 2008, dated 2010)", "system": "U937 cells", "conditions": "combined with 25mM of R9-caPep", "data": [{"smiles": "COc1cccc2c1C(=O)c1c(O)c3c(c(O)c1C2=O)C[C@@](O)(C(=O)CO)C[C@@H]3O[C@H]1C[C@H](N)[C@H](O)[C@H](C)O1", "note": "[doxorubicin]", "values": [{"measurement": "doxorubicin needed to achieve the same level of cytotoxicity (30% cell death)", "result": 25, "unit": "nM"}]}]}
